Consider 1 compound from ChEMBL document CHEMBL1129713, “Inhibitors of MMP-1: an examination of P1 C gem-disubstitution in the succinamide hydroxamate series” (Bioorg Med Chem Lett, 1996).

In the assay the target is T1, Interstitial collagenase (Homo sapiens, UniProt P03956).
T1 sequence (P03956 whole entry): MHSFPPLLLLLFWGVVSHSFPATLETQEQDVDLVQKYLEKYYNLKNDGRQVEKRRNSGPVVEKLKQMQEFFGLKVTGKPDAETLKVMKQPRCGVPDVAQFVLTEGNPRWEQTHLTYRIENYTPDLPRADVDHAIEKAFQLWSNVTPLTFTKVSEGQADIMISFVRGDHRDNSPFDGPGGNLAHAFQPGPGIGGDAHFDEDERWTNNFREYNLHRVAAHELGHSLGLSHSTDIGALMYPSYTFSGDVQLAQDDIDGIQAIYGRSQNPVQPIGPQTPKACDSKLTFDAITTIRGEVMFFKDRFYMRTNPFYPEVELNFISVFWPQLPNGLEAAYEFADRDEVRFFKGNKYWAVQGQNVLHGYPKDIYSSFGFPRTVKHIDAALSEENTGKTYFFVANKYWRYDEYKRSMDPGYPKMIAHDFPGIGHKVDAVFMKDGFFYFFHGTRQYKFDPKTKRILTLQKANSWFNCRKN
Kind of assay: Inhibition of Matrix Metallo Proteinase-1 (MMP-1).

Consider `CNC(=O)[C@H](Cc1ccc(OC)cc1)NC(=O)[C@@H](CC(=O)NO)CC(C)C`, for which half-maximal inhibition (IC50) was put at 1.9 nM.
